# Yeast mating assay B: variants of the scFv Ab-14

Source: Li et al. 2023 (doi:10.1038/s41467-023-39022-2), MIT Lincoln Laboratory and A-Alpha Bio; data file from the FLAb repository.

Target peptide (SARS-CoV-2 spike, HR2 region): PDVDLGDISGINAS

Each scFv is VH, three GGGGS repeats, VL, as in the parent Ab-14, and differs from it in the CDRs of the heavy chain only.
VH: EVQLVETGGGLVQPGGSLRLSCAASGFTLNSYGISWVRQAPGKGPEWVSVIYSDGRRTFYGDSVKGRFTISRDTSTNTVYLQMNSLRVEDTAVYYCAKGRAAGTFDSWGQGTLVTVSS
VL: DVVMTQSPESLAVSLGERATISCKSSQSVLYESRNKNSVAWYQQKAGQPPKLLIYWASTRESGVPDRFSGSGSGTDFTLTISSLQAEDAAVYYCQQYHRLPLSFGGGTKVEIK

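The parent was found by panning a naive human phage display library on the peptide. This is the validation round: designs drawn from the data on random variants, tested in the same kind of assay. Group labels follow the data file (Ctrl: baseline library sampled from a position-specific scoring matrix, with some repeated check sequences; GPLM: also part of the Gaussian process libraries; HC: hill climbing; Gen: genetic algorithm; a sequence that several methods proposed may carry one label only). AlphaSeq pools MATa yeast showing the antibodies with MATalpha yeast showing the peptide. The frequency of each diploid, read from paired DNA barcodes, reflects how well the two displayed proteins bind. A regression on co-assayed BCL2-family reference pairs converts the normalised counts of each replicate to an apparent Kd. There are six technical replicates.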

The parent's heavy chain CDRs are GFTLNSYGIS, VIYSDGRRTFYGDSVK, GRAAGTFDS; each variant's own CDRs replace them letter for letter. The read-out is the apparent dissociation constant on a log10 scale (nM): the lower, the stronger. An entry "n.d." has no value in the source: the pair was not observed among the diploids in that replicate. This suggests poor binding but is not conclusive.

CDR-H1	CDR-H2	CDR-H3	group	log10 Kd (nM) by replicate	control signals
GFTLNSYGIS	VIYSDGRRTFYGDSVK	GRIAGTFDG	Ctrl	n.d. n.d. n.d. 1.62 2.53 n.d.	0 of 18
GFFLNSYGIS	VIYSDGRRTFYNDSVK	GDAAGTFDS	Ctrl	n.d. n.d. n.d. n.d. n.d. n.d.	0 of 18
TFTLNSHGIS	VIYSDGRRTFYTDSVK	GREAGTFDG	Ctrl	n.d. n.d. n.d. n.d. n.d. n.d.	0 of 18
GFTLNSYGIS	VIYSDGRRTFYGDSVK	GLACGTFDS	Ctrl	n.d. 0.32 n.d. 0.83 n.d. 1.76	0 of 18
GFPLNEYGIS	VIYSDGRRTFYGDSVK	GRAAGTFDS	Ctrl+GPLM_Gen	1.62 2.11 0.95 0.64 1.09 1.00; 1.67 1.18 0.89 0.50 1.39 1.24	1 of 36 (2.42)
GFNLNSYGIS	VIYSDGRRTFYGDSVK	GRAAGTFDC	Ctrl	n.d. n.d. n.d. n.d. n.d. n.d.	0 of 18
GFTLNSYGIS	VIYSDGRRTFYQDSVR	GRAAGTFDL	Ctrl	n.d. n.d. n.d. n.d. 2.73 n.d.	0 of 18
GFTLNSYGIS	VIYADGRRTFYGDSVK	GRALGTFDS	Ctrl	n.d. n.d. n.d. n.d. n.d. n.d.	0 of 18
GFDLNSYGIQ	VIYSDGRRTFYGDSVK	GRQAGTFNQ	Ctrl	n.d. n.d. n.d. n.d. n.d. n.d.	0 of 18
GFTLNSYGIS	VIYSDGRRTFYTDSVK	GRAAGHFDS	Ctrl	n.d. n.d. n.d. n.d. n.d. n.d.	0 of 18
LFTINSYGIS	VIYSDGRRTSYGDSVK	GRAAGTFDS	Ctrl	n.d. n.d. n.d. n.d. n.d. n.d.	0 of 18
GFTLNSYGIS	VIYSDGRRTFYLDKVK	GEAYGTFFT	Ctrl	n.d. n.d. n.d. n.d. n.d. n.d.	0 of 18
GFTLNEYGIS	VIYSDGRRTFYHDSVK	GRAAGTFDQ	Ctrl	0.89 0.80 0.57 0.12 0.08 0.62	0 of 18
GFTLNSYGIS	VIYSDGRRTSYSDKVR	GRAAGTFDS	Ctrl	n.d. n.d. n.d. n.d. 1.32 0.84	0 of 18
GFTLNSYGIS	VIYSDGRRTMYVDSVK	CRADGTFDS	Ctrl	n.d. 2.08 n.d. n.d. n.d. n.d.	1 of 18 (2.13)
GFTLNSYGIS	VIYFDGKRTFYGDSVK	GRAAGIFFS	Ctrl	n.d. n.d. n.d. n.d. n.d. n.d.	0 of 18
GFTLNSYGIS	VIYSDGLRTFYGDSVK	GRAAGTDDS	Ctrl	n.d. n.d. n.d. n.d. n.d. n.d.	0 of 18
GFTLNSYGIS	VIYSDGRRTFYGDSVK	GRAAGTVDQ	Ctrl	n.d. n.d. n.d. n.d. n.d. n.d.	0 of 18
GFTNNDYGIS	VIYSDGRRTFYGDSVK	SRAAGTFDS	Ctrl	n.d. n.d. n.d. n.d. n.d. n.d.	0 of 18
GFTLNSYGIS	VIYSDGRRTFYGSSVK	GTAAGTFDC	Ctrl	n.d. n.d. n.d. n.d. n.d. n.d.	0 of 18
GVELESYGIS	VIYSDGRRTGYGDSVK	GRAYGTFDS	Ctrl	n.d. n.d. n.d. n.d. n.d. n.d.	0 of 18
GFTLNSYGIS	VIYSDGVRTFYGDSVK	GRHAGTFDS	Ctrl	n.d. 1.91 n.d. n.d. 3.63 n.d.	0 of 18
LFTLNSYGIS	VIYSDGRRTFISDSFK	GRAAWTFKS	Ctrl	n.d. n.d. n.d. n.d. 2.56 n.d.	1 of 18 (1.18)
GFTLNSYGIS	VIYSDGRRTFYSDSVK	GRAAGTFDL	Ctrl+GPLM_HC	1.11 0.76 0.49 1.97 0.87 1.27; n.d. n.d. n.d. 0.51 0.31 1.29	0 of 36
GFTLNSYGVS	VIYSDGRRTFYDDSVK	GRAAGTFDS	Ctrl	1.38 0.78 n.d. 1.94 1.47 1.31	0 of 18
GFALNEYGIS	VIYADNRRTQYGDSVK	GRAAGTVPS	Ctrl	n.d. 4.46 2.36 n.d. n.d. n.d.	0 of 18
LFTLNSYGIS	VIYSDGRRTFYGDSVK	GRAAGTKDD	Ctrl	n.d. n.d. n.d. n.d. n.d. n.d.	0 of 18
GFTLNDYGIS	VIYSDGKRTFYGGSVK	GRAAGTFDS	Ctrl	n.d. 2.23 n.d. n.d. n.d. n.d.	0 of 18
GFTLNSYGIS	VIYSDGRRTFYEDSVK	GRVACTFDS	Ctrl	n.d. n.d. n.d. n.d. n.d. n.d.	0 of 18
GFTLNSYGIS	VIYSDGMRTFYGDSVK	GKATGTFDS	Ctrl	n.d. n.d. n.d. n.d. n.d. n.d.	0 of 18
GFTLNDYGIS	VIYSDGYRTFYGGSVK	GAAAGTFDS	Ctrl	n.d. 1.45 n.d. 1.90 n.d. n.d.	0 of 18
GFTLNSYGIS	VIYSDGRRTFYSDSVK	GRAAFTFDS	Ctrl	n.d. n.d. n.d. 1.69 n.d. 1.44	1 of 18 (2.30)
GFTLNMYGIS	VIYSDGRRTAYDDSVK	GRAAGTFDL	Ctrl	1.63 0.67 0.97 0.24 0.32 0.78	0 of 18
GQTLSSYGIS	VIYSDGRRTFYHGSVK	GRAAGDFDS	Ctrl	n.d. n.d. n.d. n.d. n.d. n.d.	0 of 18
GFTLESYGIS	VIYSDGQRTFYGDSVK	GRAGSTFDS	Ctrl	n.d. n.d. n.d. n.d. n.d. n.d.	0 of 18
GFTLNSYGIS	VIYSDGQRNFYGDDVK	GRVADTFDS	Ctrl	n.d. n.d. n.d. n.d. n.d. n.d.	0 of 18
GFTLNSYGIS	VIYSDGRRTFYGDSVK	GPAAGLFPL	Ctrl	n.d. n.d. n.d. n.d. n.d. n.d.	0 of 18
GFNLNSYGIS	VIYSDGRRTFYGDSVK	GRAAGTFKS	Ctrl	-0.35 -0.27 -0.78 -0.15 -0.60 n.d.	0 of 18
GFTLNSYGIS	VIYSDGRRTFYGDSVK	GEAAGRFKS	Ctrl	1.44 n.d. n.d. n.d. n.d. n.d.	0 of 18
GFMLNDYGIS	VIYADGRRTAYDDSVK	GPAAGTFDS	Ctrl	n.d. n.d. n.d. n.d. n.d. n.d.	0 of 18
GATLKSYGIS	VIYSDGRRTFYGDSVK	GRNAGTFDW	Ctrl	n.d. n.d. n.d. n.d. n.d. n.d.	0 of 18
GFEINMYGGS	VIYSDGIRTFYGDNVK	GRGAGTFDS	Ctrl	n.d. n.d. n.d. n.d. n.d. n.d.	0 of 18
GFELNEYGIS	VIYSDGYRTFYGDSVK	GRAAGTYPS	Ctrl	n.d. n.d. n.d. n.d. n.d. n.d.	0 of 18
GFTLNSYGIS	VDYSDGRRTFYSDSVK	SRAAGTFDS	Ctrl	n.d. n.d. n.d. n.d. n.d. n.d.	0 of 18
GFTLNSYGIS	VIYSDGRRTQYGDSVK	GAAAGTFDS	Ctrl	0.49 0.39 n.d. 1.64 0.05 1.39	0 of 18
GFTLESYGIH	VIYSDGRRTFYHDSVA	GRAAGTFDS	Ctrl	n.d. 1.34 2.38 n.d. n.d. 2.44	0 of 18

The last 6 entries again:

CDR-H1	CDR-H2	CDR-H3	group	log10 Kd (nM) by replicate	control signals
GATLKSYGIS	VIYSDGRRTFYGDSVK	GRNAGTFDW	Ctrl	n.d. n.d. n.d. n.d. n.d. n.d.	0 of 18
GFEINMYGGS	VIYSDGIRTFYGDNVK	GRGAGTFDS	Ctrl	n.d. n.d. n.d. n.d. n.d. n.d.	0 of 18
GFELNEYGIS	VIYSDGYRTFYGDSVK	GRAAGTYPS	Ctrl	n.d. n.d. n.d. n.d. n.d. n.d.	0 of 18
GFTLNSYGIS	VDYSDGRRTFYSDSVK	SRAAGTFDS	Ctrl	n.d. n.d. n.d. n.d. n.d. n.d.	0 of 18
GFTLNSYGIS	VIYSDGRRTQYGDSVK	GAAAGTFDS	Ctrl	0.49 0.39 n.d. 1.64 0.05 1.39	0 of 18
GFTLESYGIH	VIYSDGRRTFYHDSVA	GRAAGTFDS	Ctrl	n.d. 1.34 2.38 n.d. n.d. 2.44	0 of 18

As a blank, each scFv also met three strains without target: over all heavy chain designs, 1% of these pairings were detected, typically at 2.08 and seldom below 0.84. The control count says in how many pairings with the empty strains this scFv gave a signal, with their mean in brackets. The authors' rule: three or more of the six replicates give a measured affinity, fewer mean a poor binder. Where one sequence has several entries in the source, the replicates are listed entry by entry, parted by semicolons. Values of this round are not directly comparable with the first-round values of the same sequences.